# Data: patent US9278960B2, “Quinoline carboxamide and quinoline carbonitrile derivatives as mGluR2-negative allosteric modulators, compositions, and their use” (Merck Sharp & Dohme Corp., priority 2011, dated 2016)
# Amino acid sequences for entries named in this document (tags omitted). Residues count along the entry.
# UniProt Q14416, 19-872: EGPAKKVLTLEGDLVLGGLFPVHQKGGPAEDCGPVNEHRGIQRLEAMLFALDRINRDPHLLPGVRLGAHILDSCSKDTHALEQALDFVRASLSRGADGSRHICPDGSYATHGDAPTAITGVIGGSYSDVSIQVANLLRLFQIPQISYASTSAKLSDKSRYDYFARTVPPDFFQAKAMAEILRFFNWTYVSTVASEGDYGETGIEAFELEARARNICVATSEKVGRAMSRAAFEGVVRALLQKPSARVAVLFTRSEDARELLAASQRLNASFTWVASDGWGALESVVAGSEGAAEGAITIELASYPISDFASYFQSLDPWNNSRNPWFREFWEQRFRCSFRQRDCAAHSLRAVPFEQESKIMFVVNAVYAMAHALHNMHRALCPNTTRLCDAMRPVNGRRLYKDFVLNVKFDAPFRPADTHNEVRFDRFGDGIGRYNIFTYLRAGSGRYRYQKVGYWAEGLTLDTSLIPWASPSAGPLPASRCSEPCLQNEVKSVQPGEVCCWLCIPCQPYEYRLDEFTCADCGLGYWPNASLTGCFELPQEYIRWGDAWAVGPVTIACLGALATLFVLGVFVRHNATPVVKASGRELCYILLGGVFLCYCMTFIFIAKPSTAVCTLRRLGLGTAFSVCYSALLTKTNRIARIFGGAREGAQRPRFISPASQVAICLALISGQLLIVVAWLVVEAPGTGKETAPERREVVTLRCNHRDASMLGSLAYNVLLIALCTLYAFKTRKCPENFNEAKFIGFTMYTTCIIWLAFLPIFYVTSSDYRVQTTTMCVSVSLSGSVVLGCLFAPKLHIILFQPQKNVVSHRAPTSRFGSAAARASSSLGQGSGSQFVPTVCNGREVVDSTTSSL
# Target: human mGluR2 (Homo sapiens (Human), UniProt Q14416)
# Assay: FLIPR Ca2+ mobilization antagonist assay in CHO dhfr- cells expressing recombinant human mGluR2 and Gα16
# Assay type: cell-based
# Conditions: antagonist response after addition of 2,500 nM glutamate, Fluo-4 AM, FLIPR384
row,IC50 [nM],SMILES
1,31,"Cc1ccncc1Cc1ccc2c(-c3ccc(F)cc3)cc(C(N)=O)nc2c1 [Example 6-10, 4-(4-fluorophenyl)-7-[(4-methylpyridin-3-yl)methyl] quinoline-2-carboxamide]"
2,123,"NC(=O)c1cc(-c2ccc(F)cc2)c2ccc(CN3CCOC3=O)cc2n1 [Example 2-30, 4-(4-fluorophenyl)-7-[(2-oxo-1,3-oxazolidin-3-yl)methyl]quinoline-2-carboxamide]"
3,59,"CC1(C)NC(=O)N(Cc2ccc3c(-c4ccc(F)cc4)cc(C(N)=O)nc3c2)C1=O [Example 2-16, 7-[(4,4-dimethyl-2,5-dioxoimidazolidin-1-yl)methyl]-4-(4-fluorophenyl)quinoline-2-carboxamide]"
4,109,"CN1CCN(Cc2ccc3c(-c4ccc(F)cc4)cc(C(N)=O)nc3c2)C1=O [Example 2-31, 4-(4-fluorophenyl)-7-[(3-methyl-2-oxoimidazolidin-1-yl)methyl]quinoline-2-carboxamide]"
5,260,"C[C@@H]1CN(Cc2ccc3c(-c4cn[nH]c4)cc(C(N)=O)nc3c2)C[C@H](C(F)(F)F)O1 [Example 4-97, 7-{[(2R,6R)-2-methyl-6-(trifluoromethyl)morpholin-4-yl]methyl}-4-(1H-pyrazol-4-yl)quinoline-2-carboxamide]"
6,987,"NC(=O)c1cc(-c2ccc(F)cc2)c2ccc(C(=O)N3CCOCC3)cc2n1 [Example 5-6, 4-(4-fluorophenyl)-7-(morpholin-4-ylcarbonyl)quinoline-2-carboxamide]"
7,8,"COc1ccc(-c2cc(C(N)=O)nc3cc(C(C)Cc4cnc(C#N)nc4)ccc23)cc1 (stereo not drawn) [Example 8-34, 7-[2-(2-cyanopyrimidin-5-yl)-1-methylethyl]-4-(4-methoxyphenyl) quinoline-2-carboxamide]"
8,76,"COc1ccc(Cc2ccc3c(-c4ccc(F)cc4)cc(C(N)=O)nc3c2)cc1 [Example 6-13, 4-(4-fluorophenyl)-7-(4-methoxybenzyl) quinoline-2-carboxamide]"
9,21,"NC(=O)c1cc(-c2ccc(F)cc2)c2cc(F)c(CN3C(=O)CCC3=O)cc2n1 [Example 7-21, 7-[(2,5-dioxopyrrolidin-1-yl)methyl]-6-fluoro-4-(4-fluorophenyl)quinoline-2-carboxamide]"
10,338,"NC(=O)c1cc(-c2ccc(F)cc2)c2cccc(F)c2n1 [Example 7-5, 8-Fluoro-4-(4-fluorophenyl)quinoline-2-carboxamide]"
11,10,"COc1ncc(Cc2ccc3c(-c4ccc(F)cc4)cc(C(N)=O)nc3c2)cn1 [Example 6-9, 4-(4-fluorophenyl)-7-[(2-methoxypyrimidin-5-yl)methyl] quinoline-2-carboxamide]"
12,12,"COc1ccc(-c2cc(C(N)=O)nc3cc(C(O)Cc4ccc(Cl)nc4)ccc23)cc1 (stereo not drawn) [Example 8-20, 7-[2-(6-chloropyridin-3-yl)-1-hydroxyethyl]-4-(4-methoxyphenyl) quinoline-2-carboxamide]"
13,56,"COc1nccc(Cc2ccc3c(-c4ccc(F)cc4)cc(C(N)=O)nc3c2)c1Cl [Example 6-8, 7-[(3-chloro-2-methoxypyridin-4-yl)methyl]-4-(4-fluorophenyl) quinoline-2-carboxamide]"
14,188,"NC(=O)c1cc(-c2cnn(C3CC3)c2)c2ccc(CN3CCOC(C(F)(F)F)C3)cc2n1 (stereo not drawn) [Example 4-82, 4-(1-cyclopropyl-1H-pyrazol-4-yl)-7-{[2-(trifluoromethyl)morpholin-4-yl]methyl}quinoline-2-carboxamide]"
15,25,"CC1(C)OC(=O)N(Cc2ccc3c(-c4ccc(F)cc4)cc(C(N)=O)nc3c2)C1=O [Example 2-11, 7-[(5,5-dimethyl-2,4-dioxo-1,3-oxazolidin-3-yl)methyl]-4-(4-fluorophenyl)quinoline-2-carboxamide]"
16,21,"CN1CC(=O)N(Cc2ccc3c(-c4ccc(F)cc4)cc(C(N)=O)nc3c2)C1=O [Example 2-3, 4-(4-fluorophenyl)-7-((3-methyl-2,5-dioxoimidazolidin-1-yl)methyl)quinoline-2-carboxamide]"
17,10,"CCC(O)(c1cn(Cc2ccc3c(-c4ccc(OC)c(F)c4)cc(C(N)=O)nc3c2F)cn1)C(F)(F)F (stereo not drawn) [Example 7-28, 8-fluoro-4-(3-fluoro-4-methoxyphenyl)-7-({4-[1-hydroxy-1-(trifluoromethyl)propyl]-1H-imidazol-1-yl}methyl)quinoline-2-carboxamide]"
18,252,"C[C@H]1CN(Cc2ccc3c(-c4cnn(C)c4)cc(C(N)=O)nc3c2)CCO1 [Example 4-62, 7-{[(2S)-2-methylmorpholin-4-yl]methyl}-4-(1-methyl-1H-pyrazol-4-yl)quinoline-2-carboxamide]"
19,19,"Cc1ccc(CC(C)c2ccc3c(-c4ccc(F)cc4)cc(C(N)=O)nc3c2)cn1 (stereo not drawn) [Example 8-26, 4-(4-fluorophenyl)-7-[1-methyl-2-(6-methylpyridin-3-yl)ethyl]quinoline-2-carboxamide]"
20,35,"Cn1cc(-c2cc(C(N)=O)nc3cc(Cc4ccc(F)c(C(F)(F)F)c4)ccc23)cn1 [Example 6-18, 7-[4-fluoro-3-(trifluoromethyl)benzyl]-4-(1-methyl-1H-pyrazol-4-yl)quinoline-2-carboxamide]"

row,IC50 [nM],SMILES
1,55,"NC(=O)c1cc(-c2ccc(F)cc2)c2ccc(Cn3cnc4ncccc43)cc2n1 [Example 3-34, 4-(4-fluorophenyl)-7-(1H-imidazo[4,5-b]pyridin-1-ylmethyl)quinoline-2-carboxamide]"
2,163,"COCC1CN(Cc2ccc3c(-c4cnn(C)c4)cc(C(N)=O)nc3c2)CCO1 (stereo not drawn) [Example 4-58, 7-{[2-(methoxymethyl)morpholin-4-yl]methyl}-4-(1-methyl-1H-pyrazol-4-yl)quinoline-2-carboxamide]"
3,505,"NC(=O)c1cc(-c2cnn(-c3ccccc3)c2)c2ccccc2n1 [Example 1-22, 4-(1-phenyl-1H-pyrazol-4-yl)quinoline-2-carboxamide]"
4,46,"NC(=O)c1cc(-c2ccc(F)cc2)c2ccc(Cn3cnc4ccccc43)cc2n1 [Example 3-2, 7-((1H-benzo[d]imidazol-1-yl)methyl)-4-(4-fluorophenyl)quinoline-2-carboxamide]"
5,381,"NC(=O)c1cc(-c2ccc(F)cc2)c2ccc(CN3CCC(N)CC3)cc2n1 [Example 4-50, 7-[(4-aminopiperidin-1-yl)methyl]-4-(4-fluorophenyl)quino-line-2-carboxamide]"
6,7,"COc1ccc(-c2cc(C(N)=O)nc3cc(CCc4cnc(C#N)nc4)ccc23)cc1 [Example 8-32, 7-[2-(2-cyanopyrimidin-5-yl)ethyl]-4-(4-methoxyphenyl) quinoline-2-carboxamide]"
7,23,"NC(=O)c1cc(-c2ccc(F)cc2)c2ccc(Cn3ccnc3Cl)cc2n1 [Example 3-32, 7-[(2-chloro-1H-imidazol-1-yl)methyl]-4-(4-fluorophenyl)quin-oline-2-carboxamide]"
8,189,"NC(=O)c1cc(-c2ccc(F)cc2)c2ccc(Cn3c(-c4ccccn4)nc4ccccc43)cc2n1 [Example 3-36, 4-(4-fluorophenyl)-7-[(2-pyridin-2-yl-1H-benzimidazol-1-yl)methyl]quinoline-2-carboxamide]"
9,25,"NC(=O)c1cc(-c2ccc(F)cc2)c2ccc(CN3CCNC(C(F)F)C3)cc2n1 (stereo not drawn) [Example 4-107, 7-{[3-(difluoromethyl)piperazin-1-yl]methyl}-4-(4-fluorophenyl)quino-line-2-carboxamide]"
10,76,"Cc1cnc(-c2cc(C(N)=O)nc3cc(CN4C[C@@H](C)O[C@@H](C(F)(F)F)C4)ccc23)s1 [Example 4-125, 4-(5-methyl-1,3-thiazol-2-yl)-7-{[(2R,6R)-2-methyl-6-(trifluoromethyl)morpholin-4-yl]methyl}quinoline-2-carboxamide]"
11,1630,"Cc1ncc(-c2cc(C(N)=O)nc3cc(CN4CCOC(C(F)(F)F)C4)ccc23)o1 (stereo not drawn) [Example 4-81, 4-(2-methyl-1,3-oxazol-5-yl)-7-{[2-(trifluoromethyl)morpholin-4-yl]methyl}quinoline-2-carboxamide]"
12,58,"NC(=O)c1cc(-c2ccc(Cl)cc2F)c2ccccc2n1 [Example 1-18, 4-(4-chloro-2-fluorophenyl)quinoline-2-carboxamide]"
13,42,"C[C@H]1CN(Cc2ccc3c(-c4ccc(F)cc4)cc(C(N)=O)nc3c2)CCO1 [Example 4-39, 4-(4-fluorophenyl)-7-{[(2S)-2-methylmorpholin-4-yl]methyl}quinoline-2-carboxamide]"
14,8,"COc1ccc(-c2cc(C(N)=O)nc3cc(C(C)Cc4ccc(CF)nc4)ccc23)cc1 (stereo not drawn) [Example 8-47, 7-{2-[6-(fluoromethyl)pyridin-3-yl]-1-methylethyl}-4-(4-methoxyphenyl) quinoline-2-carboxamide]"
15,14,"Cc1ccc(CC(O)c2ccc3c(-c4ccc(F)cc4)cc(C(N)=O)nc3c2)cn1 (stereo not drawn) [Example 8-22, 4-(4-fluorophenyl)-7-[1-hydroxy-2-(6-methylpyridin-3-yl)ethyl]quinoline-2-carboxamide]"
16,88,"Cn1cc(-c2cc(C(N)=O)nc3cc(CN4CCOC(C)(C)C4)ccc23)cn1 [Example 4-56, 7-[(2,2-dimethylmorpholin-4-yl)methyl]-4-(1-methyl-1H-pyrazol-4-yl)quinoline-2-carboxamide]"
17,85,"CC[C@](O)(c1cn(Cc2ccc3c(-c4ccccc4C)cc(C(N)=O)nc3c2)nn1)C(F)(F)F [Example 3-15, 7-({4-[(1S)-1-hydroxy-1-(trifluoromethyl)propyl]-1H-1,2,3-triazol-1-yl}methyl)-4-(2-methylphenyl)quinoline-2-carboxamide]"
18,7,"COc1ccc(-c2cc(C(N)=O)nc3cc(CCc4cncnc4N)ccc23)cc1 [Example 8-35, 7-[2-(4-aminopyrimidin-5-yl)ethyl]-4-(4-methoxyphenyl) quinoline-2-carboxamide]"
19,6,"COc1ccc(-c2cc(C(N)=O)nc3cc(C(C)Cc4cnc(C)nc4)ccc23)c(F)c1 (single isomer, unassigned) [Example 8-11, 4-(2-Fluoro-4-methoxyphenyl)-7-[1-(2-methylpyrimidin-5-yl)propan-2(R or S)-yl]quinoline-2-carboxamide]"
